Test results published in patent US20070259375A1, “Biomarkers and Methods for Determining Sensitivity to Epidermal Growth Factor Receptor Modulators in Non-Small Cell Lung Cancer” (Bristol-Myers Squibb Company, priority 2004, published 2007).

How the values were obtained:
H661 = experiment: Relative drug sensitivity in NSCLC cell lines, BrdU Cell Proliferation ELISA; format: cell-based, human; conditions: H661 cell line
Description: (§1) The NSCLC cell lines were grown using standard cell culture conditions: DMEM supplemented to contain 10% fetal bovine serum, 100 IU/ml penicillin, […] streptomycin and 2 mM L-glutamine (all from Invitrogen Life Technologies, Carlsbad, Calif.). […] Cytotoxicity was assessed in cells by BrdU Cell Proliferation calorimetric ELISA (Roche Applied Science, Indianapolis, Ind.). This is a calorimetric immunoassay for the quantification of cell proliferation based on the measurement of BrdU incorporation during DNA synthesis. To carry out the assays, the NSCLC cells were plated at 2500-5000 cells/well in 96 well microtiter plates and 24 hours later diluted monoclonal antibody drug was added. […] The cells were incubated at 37° C. for 48 hours at which time the BrdU labeling reagent was added. After two hours the labeling medium was removed and cells were fixed and the DNA was denatured using a FixDenat solution. The anti-BrdU antibody conjugated with peroxidase was added and immune complexes were detected by the subsequent substrate reaction. The reaction product was quantified by measuring the absorbance of the samples in an ELISA reader at […]. The greater the absorbency, the greater the number of live cells. […] The IC50 is the drug concentration required to inhibit cell proliferation to 50% of that of untreated cells. Three to six independent BrdU assays were performed for each cell line.
(§2) For the analysis, cell lines ChagoK1 and L2987 were defined as sensitive and the remaining twelve cell lines were defined as resistant.

L2987 = experiment: as above; format: cell-based, human; conditions: L2987 cell line
Description: as §1, §2

A549 = experiment: as above; format: cell-based, human; conditions: A549 cell line, EGFR+
Description: as §1, §2

H226 = experiment: as above; format: cell-based, human; conditions: H226 cell line, EGFR+
Description: as §1, §2

H838 = experiment: as above; format: cell-based, human; conditions: H838 cell line
Description: as §1, §2

H441 = experiment: as above; format: cell-based, human; conditions: H441 cell line
Description: as §1, §2

LX1 = experiment: as above; format: cell-based, human; conditions: LX1 (LX-1) cell line, EGFR negative
Description: as §1, §2

H522 = experiment: as above; format: cell-based, human; conditions: H522 cell line, EGFR negative
Description: as §1, §2

Calu6 = experiment: as above; format: cell-based, human; conditions: Calu6 cell line
Description: as §1, §2

SK-LU1 = experiment: as above; format: cell-based, human; conditions: SK-LU1 cell line
Description: as §1, §2

H2347 = experiment: as above; format: cell-based, human; conditions: H2347 cell line
Description: as §1, §2

ChagoK1 = experiment: as above; format: cell-based, human; conditions: ChagoK1 cell line
Description: as §1, §2

SK-MES1 = experiment: as above; format: cell-based, human; conditions: SK-MES1 cell line
Description: as §1, §2

SW900 = experiment: as above; format: cell-based, human; conditions: SW900 cell line
Description: as §1, §2

L2987 lung xenograft = experiment: In vivo antitumor testing, lung xenograft model; conditions: nude mice
Description: (§3) Regulation by EGFR inhibitors in lung xenograft models would lend additional support to the candidate markers, as being predictive of response.
(§4) Tumors were propagated in nude mice as subcutaneous (sc) transplants using tumor fragments obtained from donor mice. Tumor passage occurred approximately every two to four weeks. Tumors were then allowed to grow to the pre-determined size window (usually between 100-200 mg, tumors outside the range were excluded) and animals were evenly distributed to various treatment and control groups. […] Treated animals were checked daily for treatment related toxicity/mortality. Each group of animals was weighed before the initiation of treatment (Wt1) and then again following the last treatment dose (Wt2). The difference in body weight (Wt2-Wt1) provided a measure of treatment-related toxicity. Tumor response was determined by measurement of tumors with a caliper twice a week, until the tumors reached a predetermined target size of 1 gm or became necrotic. Tumor weights (mg) were estimated from the formula: Tumor weight=(length×width^2)/2 Antitumor activity was determined in terms of primary tumor growth inhibition. This was determined in two ways: (i) calculating the relative median tumor weight (MTW) of treated (T) and control (C) mice at various time points (effects were expressed as % T/C); and (ii) calculating the tumor growth delay (T-C value), defined as the difference in time (days) required for the treated tumors (T) to reach a predetermined target size compared to those of the control group (C). Statistical evaluations of data were performed using Gehan's generalized Wilcoxon test for comparisons of time to reach tumor target size (Gehan 1965). Statistical significance was declared at p<0.05. […]
(§5) Treated animals were checked daily for treatment related toxicity/mortality. When death occurred, the day of death was recorded. […]

LX1 lung xenograft = experiment: In vivo antitumor testing, lung xenograft model; conditions: nude mice
Description: as §3, §4, §5

A549 lung xenograft = experiment: In vivo antitumor testing, lung xenograft model; conditions: nude mice
Description: as §3, §4, §5

## cetuximab
H661
  resistance/sensitivity classification: resistant
L2987
  resistance/sensitivity classification: sensitive
A549
  resistance/sensitivity classification: resistant
H226
  resistance/sensitivity classification: resistant
H838
  resistance/sensitivity classification: resistant
H441
  resistance/sensitivity classification: resistant
LX1
  resistance/sensitivity classification: resistant
H522
  resistance/sensitivity classification: resistant
Calu6
  resistance/sensitivity classification: resistant
SK-LU1
  resistance/sensitivity classification: resistant
H2347
  resistance/sensitivity classification: resistant
ChagoK1
  resistance/sensitivity classification: sensitive
SK-MES1
  resistance/sensitivity classification: resistant
SW900
  resistance/sensitivity classification: resistant
L2987 lung xenograft
  sensitivity of lung xenograft model: sensitive
LX1 lung xenograft
  sensitivity of lung xenograft model: resistant
A549 lung xenograft
  sensitivity of lung xenograft model: borderline sensitive
